{"source": "patent US20110250133A1", "about": "“GASTRIN […] PEPTIDE COMPOUNDS” (priority 2003, published 2011)", "system": "PC-3 prostate cancer cells", "assay": "Effect of dasatinib on GRP receptor binding, proliferation and glucose uptake in PC-3 cells (single plate assay)", "type": "cell-based, human", "conditions": "PC-3, vs control without treatment", "protocol": "The cells were plated on Day 0 (7.5 k/well 96-well PE Scintiplate). […] To determine the cell numbers and the proliferation, 100 uL of 10% CCK—F solution in DPBS (Molecular technologies) was added to the same plate, incubated for 30 min at 37° C. and the relative fluorescence (RFU) measured at 535 nm. Base on the cell numbers and the ^177Lu-binding, the Bmax (fmoles bound/million cells) was calculated, and the results compared with the control.\nFor the glucose uptake study, a fluorescently labeled 2-deoxyglucose derivative (2-NBDG) was used. After the dasatinib treatment as described above, the cells were incubated with 2-NBDG (200 uM) in binding buffer for 2 h at 37° C. and measured RFU at 530 nm. The cell numbers were determined using CCK—F as described above. Based on the cell numbers Bmax for glucose uptake was determined and compared with the control."}
{"substance": "dasatinib", "values": [{"measurement": "increase of 177Lu-AMBA uptake", "result": "up to 76%"}, {"measurement": "increase of 177Lu-AMBA uptake", "setting": "listed as Dasatinib", "result": 76.7, "unit": "%"}]}
